Patent publication US20110118181A1 (INSTITUT DE RECHERHES CLINIQUES DE MONTREAL, published 2011)

Target: T1, PCSK9-V5 (full-length human PCSK9 with C-terminal V5 tag) (human, UniProt Q8NBP7)
T1 construct: Used as conditioned medium of CHO-K1 cells (Far Western, pull-down) or co-expressed in cells (co-IP); The background says PCSK9 is secreted as a prosegment-PCSK9 heterodimer; also called full-length (FL) PCSK9-V5; native PCSK9; not shown: C-terminal V5 tag
Experiment: Far Western blot of HEK293 lysates

B1: AnxA2 Δ2-24 (N-terminal deletant, untagged) (other)
chain: MGSVKAYTNFDAERDALNIETAIKTKGVDEVTIVNILTNRSNAQRQDIAFAYQRRTKKELASALKSALSGHLETVILGLLKTPAQYDASELKASMKGLGTDEDSLIEIICSRTNQELQEINRVYKEMYKTDLEKDIISDTSGDFRKLMVALAKGRRAEDGSVIDYELIDQDARDLYDAGVKRKGTDVPKWISIMTERSVPHLQKVFDRYKSYSPYDMLESIRKEVKGDLENAFLNLVQCIQNKPLYFADRLYDSMKGKGTRDKVLIRIMVSRSEVDMLKIRSEFKRKYGKSLYYYIQQDTKGDYQKALLYLCGGDD
- binding result: binds
